From ChEMBL document CHEMBL5728058, “3-(carboxymethyl)-8-amino-2-oxo-1,3-diaza-spiro-[4.5]-decane derivatives” (2020)
Several values for one entry are separate records, joined by “and”; a condition that tells them apart may be missing. Equal entries are not always repeated.

Amino acid sequences for entries named in this document (tags omitted).
UniProt P35372, whole entry, looked up: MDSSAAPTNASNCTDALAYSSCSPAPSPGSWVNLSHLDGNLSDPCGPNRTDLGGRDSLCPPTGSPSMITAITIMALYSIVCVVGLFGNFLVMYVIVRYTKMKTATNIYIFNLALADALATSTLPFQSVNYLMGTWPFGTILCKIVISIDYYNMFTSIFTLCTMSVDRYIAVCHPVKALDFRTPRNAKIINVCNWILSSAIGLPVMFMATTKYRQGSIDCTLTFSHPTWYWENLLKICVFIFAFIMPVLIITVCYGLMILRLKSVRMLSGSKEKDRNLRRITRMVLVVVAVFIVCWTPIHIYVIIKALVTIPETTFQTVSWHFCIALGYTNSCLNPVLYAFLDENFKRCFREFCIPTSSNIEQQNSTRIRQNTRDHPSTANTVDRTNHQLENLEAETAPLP

The molecules below were run against Mu-type opioid receptor (Homo sapiens, UniProt P35372) (assay: Human Mu-Opioid Peptide (hMOP) Receptor Binding Assay: The hMOP receptor binding assay was performed as homogeneous SPA-assay (scintillation proximity assay) using the assay buffer 50 mM TRIS-HCl (pH 7.4) supplemented with 0.052 mg/ml bovine serum albumin (Sigma-Aldrich Co., St. Louis, Mo.). The final assay volume (250 μl/well) included 1 nM of [N-allyl-2,3-3H]naloxone as ligand (PerkinElmer Life).
For CN(C)[C@]1(c2ccccc2)CC[C@]2(CC1)CN(CC(=O)Nc1cccc(C(N)=O)n1)C(=O)N2CC1CCC1, the Ki was 0.072 µM. With CN(C)[C@]1(c2ccccc2)CC[C@]2(CC1)CN(CC(=O)Nc1cccc(O)n1)C(=O)N2CC1CCC1 the Ki was 0.023 µM. CN[C@]1(c2ccccc2)CC[C@]2(CC1)CN(CC(N)=O)C(=O)N2CC1(O)CCC1 showed a Ki of 0.071 µM. With CNC(=O)CN1C[C@]2(CC[C@](c3ccccc3)(N(C)C)CC2)N(CC2(O)CCC2)C1=O the Ki was 0.0845 µM and 0.52 µM. Work on CN(C)[C@]1(c2ccccc2)CC[C@]2(CC1)CN(CC(=O)N1CCC(S(C)(=O)=O)CC1)C(=O)N2CC1CC1 yielded a Ki of 0.205 µM. With CN(C)[C@]1(c2ccccc2)CC[C@]2(CC1)CN(CC(=O)Nc1cnc(O)nc1)C(=O)N2CC1CCC1 the Ki was 0.0315 µM. With CN(C)[C@]1(c2ccccc2)CC[C@]2(CC1)CN(CC(=O)NCCNS(C)(=O)=O)C(=O)N2CC1CCC1 the Ki was 0.0435 µM. In the case of CN(C)[C@]1(c2ccccc2)CC[C@@]2(CC1)CN(CC(=O)N1CCOCC1)C(=O)N2CC1CC1, the Ki is reported as 0.0155 µM. Molecule CN(C)[C@]1(c2ccccc2)CC[C@]2(CC1)CN(CC(=O)NCC#N)C(=O)N2CC1CCC1 has a Ki of 0.0187 µM. For CN(C)[C@]1(c2ccccc2)CC[C@]2(CC1)CN(CC(=O)Nc1nccc(C#N)n1)C(=O)N2CC1CCC1, the Ki was 0.0195 µM. COc1cccc(NC(=O)CN2C[C@]3(CC[C@](c4ccccc4)(N(C)C)CC3)N(CC3CCC3)C2=O)n1 showed a Ki of 0.22 µM. Cc1ncccc1CNC(=O)CN1C[C@]2(CC[C@](c3ccccc3)(N(C)C)CC2)N(CC2CCC2)C1=O gave a Ki of 0.015 µM. In the case of CN(C)[C@]1(c2ccccc2)CC[C@]2(CC1)CN(CC(=O)NCCS(C)(=O)=O)C(=O)N2CC1CCC1, the Ki is reported as 0.0137 µM and 0.0317 µM. CN[C@]1(c2ccccc2)CC[C@]2(CC1)CN(CC(=O)N(C)C(C)(C)C(N)=O)C(=O)N2CC1CCC1 was tested, and the Ki was 0.15 µM. CN(C)[C@]1(c2ccccc2)CC[C@]2(CC1)CN(CC(=O)NCc1ccncn1)C(=O)N2CC1CCC1 gave a Ki of 0.0104 µM. CN(C)[C@]1(c2ccccc2)CC[C@]2(CC1)CN(CC(=O)NCCC#N)C(=O)N2CC1CCC1 showed a Ki of 0.0257 µM. With CN(C)[C@]1(c2ccccc2)CC[C@]2(CC1)CN(CC(=O)Nc1cccnc1)C(=O)N2CC1(O)CCC1 the Ki was 0.041 µM. Molecule Cc1cnc(NC(=O)CN2C[C@]3(CC[C@](c4ccccc4)(N(C)C)CC3)N(CC3CCC3)C2=O)cn1 has a Ki of 0.039 µM. CN(C)[C@]1(c2ccccc2)CC[C@]2(CC1)CN(CC(=O)NCC1(O)CCCC1)C(=O)N2CC1CCC1 was tested, and the Ki was 0.015 µM. With CN(C)[C@]1(c2ccccc2)CC[C@]2(CC1)CN(CC(=O)NCc1ncccn1)C(=O)N2CC1CCC1 the Ki was 0.0265 µM. CN(CC(N)=O)C(=O)CN1C[C@]2(CC[C@](c3ccccc3)(N(C)C)CC2)N(CC2CCC2)C1=O was tested, and the Ki was 0.0342 µM and 0.0835 µM. In the case of COCCOCCOCCOCCOCCOCCOCCNC(=O)CN1C[C@]2(CC[C@](c3ccccc3)(N(C)C)CC2)N(CC2CCC2)C1=O, the Ki is reported as 0.206 µM and 0.23 µM. Molecule CN(C)[C@]1(c2ccccc2)CC[C@]2(CC1)CN(CC(=O)Nc1ccon1)C(=O)N2CC1CCC1 has a Ki of 0.059 µM. CN(C)[C@]1(c2ccccc2)CC[C@]2(CC1)CN(CC(=O)Nc1ncccc1C#N)C(=O)N2CC1CCC1 was tested, and the Ki was 0.0205 µM. Work on CN(C)[C@]1(c2ccccc2)CC[C@]2(CC1)CN(CC(=O)Nc1ccc(F)cn1)C(=O)N2CC1CCC1 yielded a Ki of 0.043 µM. For COc1cncc(NC(=O)CN2C[C@]3(CC[C@](c4ccccc4)(N(C)C)CC3)N(CC3CCC3)C2=O)n1, the Ki was 0.053 µM. COc1ccncc1CNC(=O)CN1C[C@]2(CC[C@](c3ccccc3)(N(C)C)CC2)N(CC2CCC2)C1=O was tested, and the Ki was 0.0045 µM. Molecule COCCCN1C(=O)N(CC(=O)N2CCNC(=O)C2)C[C@]12CC[C@](c1ccccc1)(N(C)C)CC2 has a Ki of 0.32 µM. CN(C)[C@]1(c2ccccc2)CC[C@]2(CC1)CN(CC(=O)NCC1CCS(=O)(=O)CC1)C(=O)N2CC1CCC1 was tested, and the Ki was 0.025 µM. With CN(C)[C@]1(c2ccccc2)CC[C@]2(CC1)CN(CC(=O)NCC1CCCC[C@H]1O)C(=O)N2CC1CCC1 (some centres not stated) the Ki was 0.0205 µM. CN(C)[C@]1(c2ccccc2)CC[C@]2(CC1)CN(CC(=O)N1CCC(C(N)=O)CC1)C(=O)N2CC1CC1 showed a Ki of 0.24 µM. Molecule Cc1ccc(NC(=O)CN2C[C@]3(CC[C@](c4ccccc4)(N(C)C)CC3)N(CC3CCC3)C2=O)nc1 has a Ki of 0.0445 µM.
